# Measured affinities in a library of Ab-91 heavy chain variants

Source: Engelhart et al. 2022 (doi:10.1038/s41597-022-01779-4), MIT Lincoln Laboratory and A-Alpha Bio; data file from the FLAb repository.

All variants were tested on one target, the spike HR2 peptide PDVDLGDISGINAS (SARS-CoV-2).

Parent: Ab-91, a human scFv built as VL, three GGGGS repeats, VH. Only the CDRs of the heavy chain vary.
VL: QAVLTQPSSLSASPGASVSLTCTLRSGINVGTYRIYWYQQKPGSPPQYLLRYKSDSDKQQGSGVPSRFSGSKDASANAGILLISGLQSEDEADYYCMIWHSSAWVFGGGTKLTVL
VH: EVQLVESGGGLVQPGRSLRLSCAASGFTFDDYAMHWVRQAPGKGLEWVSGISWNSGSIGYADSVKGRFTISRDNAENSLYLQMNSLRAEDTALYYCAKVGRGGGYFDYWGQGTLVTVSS

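Phage display of a naive human antibody library on the peptide gave the parent. AAYL51 was designed without a model: most single CDR substitutions and a random sample of double and triple ones. In AlphaSeq, yeast of one mating type display the scFv and yeast of the other type display the target. Pairs that bind mate more often; barcode pairs of the diploids are counted by sequencing. Each replicate has its own calibration line, from reference interactions of the BCL2 family. Mating was done three times.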

Changes read parent residue, position, new residue, counted from the first residue of the VH shown.
Every variant below is changed at G26 of the VH (sequential numbering).
Each Kd is an estimate from the mating assay, the geometric mean of the replicates in which the pair was seen; lower is stronger.
Where no diploid with the target was found in any replicate, the entry reads "nd": below detection, most likely a poor binder, though not proof of it.
In this assay the parent's reference entry averaged 72 nM; its copy inside this library read 7.5 nM.

Variant G26N+M34D+G103L showed 32 µM (2 of 3 replicates; controls 4 of 9). Variant G26D+K65C+F106Q showed nd (0 of 3 replicates; controls 0 of 9). For G26S+F106V+D107R, the assay gave 1.6 µM (1 of 3 replicates; controls 2 of 9). Variant G26T+V64Y+Y105E showed nd (0 of 3 replicates; controls 1 of 9). With G26K+T28Q+G102Y the result was nd (0 of 3 replicates; controls 3 of 9). Variant G26T+M34Q+G104D showed 7.3 µM (1 of 3 replicates; controls 1 of 9). Variant G26I+Y32N+G104K gave 33 µM (2 of 3 replicates; controls 1 of 9).

For G26H+M34I+G103C, the assay gave nd (0 of 3 replicates; controls 2 of 9). With G26W+T28L+A33E the result was nd (0 of 3 replicates; controls 0 of 9). With G26P+T28A+I58R the result was nd (0 of 3 replicates; controls 2 of 9). For G26L+A33I+S57T, the assay gave 120 µM (1 of 3 replicates; controls 1 of 9). Variant G26A+S55E+V99C showed nd (0 of 3 replicates; controls 0 of 9). For G26P+G50I+I58A, the assay gave 310 µM (1 of 3 replicates; controls 1 of 9). Variant G26P+I58M+D62W gave nd (0 of 3 replicates; controls 0 of 9).

Variant G26L+S55V+F106C showed nd (0 of 3 replicates; controls 0 of 9). Variant G26P+Y108I gave 1.9 µM (1 of 3 replicates; controls 1 of 9). For G26F+T28H+G50A, the assay gave nd (0 of 3 replicates; controls 0 of 9). For G26F+D62I+D107Y, the assay gave 46 µM (1 of 3 replicates; controls 0 of 9). For G26W+N54F+S57F, the assay gave 77 µM (2 of 3 replicates; controls 4 of 9). Variant G26Y+F27P gave nd (0 of 3 replicates; controls 0 of 9). With G26E+S57L+Y60C the result was nd (0 of 3 replicates; controls 0 of 9).

Variant G26L+Y60A+Y108L showed nd (0 of 3 replicates; controls 0 of 9). With G26A+T28D+W53S the result was 840 nM (3 of 3 replicates; controls 0 of 9). Variant G26P+I51R showed 18 nM (3 of 3 replicates; controls 0 of 9). Variant G26P+G100S showed 46 µM (1 of 3 replicates; controls 3 of 9). For G26S+N54W+S57N, the assay gave 140 µM (2 of 3 replicates; controls 0 of 9). Variant G26N+D107M+Y108L showed 43 µM (2 of 3 replicates; controls 3 of 9). Variant G26W+G56E+R101H showed 9.7 µM (1 of 3 replicates; controls 3 of 9).

Variant G26Q showed nd (0 of 3 replicates; controls 0 of 9). For G26N+A33H+V99S, the assay gave 340 µM (2 of 3 replicates; controls 6 of 9). Variant G26H+F29Y+S52L gave nd (0 of 3 replicates; controls 2 of 9). With G26P+S63M+Y108E the result was 15 µM (1 of 3 replicates; controls 0 of 9). Variant G26M+G56W+G104V gave nd (0 of 3 replicates; controls 1 of 9). With G26K+K65A+G103D the result was 1.6 µM (1 of 3 replicates; controls 0 of 9). With G26R the result was 15 µM (2 of 3 replicates; controls 4 of 9).

With G26Y+M34C+V64C the result was nd (0 of 3 replicates; controls 1 of 9). Variant G26K+S63C+V99Q showed 230 µM (1 of 3 replicates; controls 1 of 9). With G26M+G100A+D107R the result was 150 µM (2 of 3 replicates; controls 1 of 9). Variant G26H+F29Q+I58C showed nd (0 of 3 replicates; controls 0 of 9). With G26N+G59F+K65Y the result was nd (0 of 3 replicates; controls 0 of 9).

The 2 strongest on average among those seen in every replicate, once more:

changes,apparent Kd,seen in,empty controls
G26P+I51R,18 nM,3/3,0/9
G26A+T28D+W53S,840 nM,3/3,0/9

Nonspecific signal, from three strains lacking the peptide, appeared in 21% of pairings of library AAYL51, centred on 34 µM (5% of these signals below 1.8 µM); values are not corrected for it. For each scFv, signals with the empty controls are counted beside the result.